Chains of the proteins cited; added tags and fusions are not shown. Lines headed by an entry give the natural chain unless they say otherwise; changes in a name come on top.
UniProt Q15910, whole entry: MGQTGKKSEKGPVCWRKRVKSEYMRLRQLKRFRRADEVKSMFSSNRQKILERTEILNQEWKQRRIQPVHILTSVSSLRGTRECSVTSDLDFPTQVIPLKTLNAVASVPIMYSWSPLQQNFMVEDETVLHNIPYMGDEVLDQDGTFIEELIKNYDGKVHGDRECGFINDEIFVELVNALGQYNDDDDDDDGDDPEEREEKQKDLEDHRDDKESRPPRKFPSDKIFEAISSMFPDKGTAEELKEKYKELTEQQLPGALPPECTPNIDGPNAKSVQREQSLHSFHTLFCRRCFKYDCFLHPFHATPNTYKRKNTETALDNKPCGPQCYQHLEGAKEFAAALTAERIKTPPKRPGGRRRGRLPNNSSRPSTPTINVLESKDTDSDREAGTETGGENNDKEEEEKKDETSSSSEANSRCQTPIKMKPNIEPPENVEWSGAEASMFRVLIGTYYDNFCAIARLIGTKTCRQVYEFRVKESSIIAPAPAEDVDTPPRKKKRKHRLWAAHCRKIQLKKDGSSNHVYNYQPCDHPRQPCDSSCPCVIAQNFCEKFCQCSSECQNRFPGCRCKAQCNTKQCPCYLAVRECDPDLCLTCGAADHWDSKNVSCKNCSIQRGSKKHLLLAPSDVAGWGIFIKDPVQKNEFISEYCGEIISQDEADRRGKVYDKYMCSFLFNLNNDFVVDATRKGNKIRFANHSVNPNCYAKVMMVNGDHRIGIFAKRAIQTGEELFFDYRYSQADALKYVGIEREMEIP
UniProt Q15910, whole entry Y641N: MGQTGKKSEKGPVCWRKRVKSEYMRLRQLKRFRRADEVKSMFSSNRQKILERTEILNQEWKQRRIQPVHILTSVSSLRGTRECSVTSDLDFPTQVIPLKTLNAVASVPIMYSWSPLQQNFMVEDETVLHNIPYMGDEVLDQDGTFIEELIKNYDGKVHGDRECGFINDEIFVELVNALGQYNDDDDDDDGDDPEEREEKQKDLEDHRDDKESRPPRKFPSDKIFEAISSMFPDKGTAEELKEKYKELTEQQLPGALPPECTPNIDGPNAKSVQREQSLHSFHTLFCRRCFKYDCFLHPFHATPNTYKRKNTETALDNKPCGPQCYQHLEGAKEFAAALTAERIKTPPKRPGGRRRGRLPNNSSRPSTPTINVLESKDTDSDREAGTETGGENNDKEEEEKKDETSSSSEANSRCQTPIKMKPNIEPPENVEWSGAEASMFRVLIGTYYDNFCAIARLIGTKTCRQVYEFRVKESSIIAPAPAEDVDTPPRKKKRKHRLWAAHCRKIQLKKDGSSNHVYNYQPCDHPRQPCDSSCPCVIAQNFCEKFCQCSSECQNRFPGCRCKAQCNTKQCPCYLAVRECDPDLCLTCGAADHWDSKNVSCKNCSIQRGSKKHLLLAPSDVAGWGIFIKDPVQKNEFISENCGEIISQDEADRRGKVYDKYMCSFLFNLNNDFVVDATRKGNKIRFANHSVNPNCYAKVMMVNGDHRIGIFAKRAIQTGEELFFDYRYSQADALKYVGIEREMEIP
UniProt Q15022, whole entry partner: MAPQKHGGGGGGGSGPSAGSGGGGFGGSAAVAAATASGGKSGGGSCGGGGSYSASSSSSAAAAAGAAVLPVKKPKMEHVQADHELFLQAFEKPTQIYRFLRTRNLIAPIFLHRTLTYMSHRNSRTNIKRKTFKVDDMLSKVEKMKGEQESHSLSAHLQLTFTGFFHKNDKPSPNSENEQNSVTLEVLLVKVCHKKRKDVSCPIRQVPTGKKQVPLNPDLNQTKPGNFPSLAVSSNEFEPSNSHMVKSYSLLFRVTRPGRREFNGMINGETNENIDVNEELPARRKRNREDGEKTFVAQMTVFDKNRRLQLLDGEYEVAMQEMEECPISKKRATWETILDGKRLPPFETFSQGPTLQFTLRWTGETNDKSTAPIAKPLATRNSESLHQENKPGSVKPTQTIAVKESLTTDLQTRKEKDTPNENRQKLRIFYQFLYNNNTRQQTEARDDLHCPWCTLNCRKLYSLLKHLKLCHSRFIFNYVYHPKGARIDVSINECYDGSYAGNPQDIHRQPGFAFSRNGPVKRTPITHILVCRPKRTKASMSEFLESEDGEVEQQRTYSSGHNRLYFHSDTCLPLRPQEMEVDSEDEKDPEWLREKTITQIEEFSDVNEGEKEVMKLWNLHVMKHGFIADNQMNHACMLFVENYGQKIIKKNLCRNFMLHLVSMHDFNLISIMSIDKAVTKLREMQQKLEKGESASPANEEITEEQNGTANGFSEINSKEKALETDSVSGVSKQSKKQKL
UniProt O75530, whole entry partner: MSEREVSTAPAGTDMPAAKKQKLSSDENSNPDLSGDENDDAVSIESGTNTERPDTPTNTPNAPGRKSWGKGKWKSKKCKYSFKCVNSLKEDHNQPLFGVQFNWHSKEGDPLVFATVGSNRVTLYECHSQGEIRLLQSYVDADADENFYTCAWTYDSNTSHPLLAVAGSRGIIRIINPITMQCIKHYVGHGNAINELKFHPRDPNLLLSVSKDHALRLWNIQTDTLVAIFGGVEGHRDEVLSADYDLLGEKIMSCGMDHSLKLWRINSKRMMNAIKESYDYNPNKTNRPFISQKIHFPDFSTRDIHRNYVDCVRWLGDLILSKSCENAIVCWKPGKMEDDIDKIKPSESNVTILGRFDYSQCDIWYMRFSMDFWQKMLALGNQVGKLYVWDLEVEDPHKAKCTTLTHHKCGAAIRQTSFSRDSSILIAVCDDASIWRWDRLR

According to patent US9206128B2 (Constellation Pharmaceuticals, Inc., priority 2011, dated 2015):

What was measured:
[1] = molecular target: Y641N EZH2 (Homo sapiens, UniProt Q15910, Y641N); test: Y641N EZH2 activity inhibition assay (as EZH2 assay, reconstituted H3K27Me2 oligonucleosomes as substrate); assay type: biochemical; conditions: read-out: Y641N EZH2 IC50, Y641N EZH2 mutant enzyme
[2] = molecular target: EZH2 (Homo sapiens, UniProt Q15910); test: EZH2 activity inhibition assay (rPRC2, 3H SAM, biotinylated oligonucleosomes, FlashPlate); assay type: biochemical; conditions: read-out: EZH2 IC50; rPRC2, 2 nM EZH2, 0.2 μM 3H SAM, top concentration 80 μM

SMILES: Cc1cc(C)c(CNC(=O)c2ccc(C(C)Oc3cccc(F)c3)cc2)c(=O)[nH]1 (single isomer, unassigned)
- IC50 [1]: 1000 to 10000 nM

SMILES: Cc1cc(C)c(CNC(=O)c2ccc(C(C)Oc3ccc(C#N)cc3)cc2)c(=O)[nH]1 (single isomer, unassigned)
- IC50 [2]: 1000 to 10000 nM and < 1000 nM
- IC50 [1]: 1000 to 10000 nM

SMILES: Cc1cc(C)c(CNC(=O)c2ccc(C(C)Oc3ccc(F)cc3F)cc2)c(=O)[nH]1 (single isomer, unassigned)
- IC50 [2]: 1000 to 10000 nM and < 1000 nM

SMILES: Cc1cc(C)c(CNC(=O)c2ccc(C(C)Oc3ccccc3)c(C)c2)c(=O)[nH]1 (single isomer, unassigned)
- IC50 [2]: 1000 to 10000 nM and < 1000 nM

SMILES: Cc1cc(C)c(CNC(=O)c2ccc(C(C)Oc3ccc(F)cc3)cc2)c(=O)[nH]1 (single isomer, unassigned)
- IC50 [1]: 1000 to 10000 nM and < 1000 nM

SMILES: Cc1cc(C)c(CNC(=O)c2c(C)cn(C(C)c3ccccc3)c(=O)c2C)c(=O)[nH]1 (single isomer, unassigned)
- IC50 [2]: < 1000 nM and 1000 to 10000 nM

SMILES: Cc1cc(C)c(CNC(=O)c2ccc(C(C)c3ccccc3)cc2C)c(=O)[nH]1 (single isomer, unassigned)
- IC50 [2]: < 1000 nM and 1000 to 10000 nM
- IC50 [1]: < 1000 nM and 1000 to 10000 nM

Several values for one entry are separate records, joined by “and”; a condition that tells them apart may be missing. Identical values can stand only once.
